Literature values, collected in patent publication US10137070B2, “Composition including ionone or salt thereof as active ingredient and having effect of enhancing skin moisturizing, exfoliating skin, improving skin elasticity, inhibiting erythema, improving skin wrinkles, or alleviating skin photoaging” (Industry-Academic Cooperation Foundation, Yonsei University, priority 2016, dated 2018).

Tested on: rats
Details: 72 rats, orally 3 mg/mouse dissolved in oil for 7 weeks every two days; cited from earlier work

ionone
toxicity after oral administration: no toxicity was shown
